{"sequences": {"note": "By UniProt entry, the sequences of proteins in these tests, tags left out. Where a name states a change or a piece, a line headed by the entry shows the natural chain unless it says otherwise.", "UniProt P41145": "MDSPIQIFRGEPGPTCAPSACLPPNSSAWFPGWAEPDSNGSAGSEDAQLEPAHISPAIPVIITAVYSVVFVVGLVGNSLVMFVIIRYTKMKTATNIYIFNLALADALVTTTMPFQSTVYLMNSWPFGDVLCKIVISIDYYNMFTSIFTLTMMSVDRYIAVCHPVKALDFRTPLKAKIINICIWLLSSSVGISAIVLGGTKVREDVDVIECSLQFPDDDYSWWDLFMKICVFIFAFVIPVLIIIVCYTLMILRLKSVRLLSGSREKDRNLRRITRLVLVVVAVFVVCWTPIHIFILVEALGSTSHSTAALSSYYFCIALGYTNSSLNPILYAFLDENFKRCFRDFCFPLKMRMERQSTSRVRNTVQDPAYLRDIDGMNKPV"}, "source": "ChEMBL document CHEMBL4152209", "about": "“Synthesis of 7β-hydroxy-8-ketone opioid derivatives with antagonist activity at mu- and delta-opioid receptors” (Eur J Med Chem, 2018)", "key": {"[1]": {"molecular_target": "Kappa-type opioid receptor (Homo sapiens) (UniProt P41145)", "conditions": "at 1 µM"}, "[2]": {"molecular_target": "Kappa-type opioid receptor (Homo sapiens) (UniProt P41145)", "conditions": "at 10 µM"}}, "data": [{"smiles": "CN(C(=O)Cc1ccc(Cl)c(Cl)c1)C1CCCCC1N1CCCC1", "note": "(configuration not stated)", "values": [{"measurement": "inhibition", "setting": "[1]", "value": 91, "unit": "%"}, {"measurement": "inhibition", "setting": "[2]", "value": 95, "unit": "%"}]}]}
